Paper PMC7915666, “Antitrypanosomal and Antileishmanial Activity of Chalcones and Flavanones from Polygonum salicifolium” (Pathogens, 2021)

Test system: HFF cells
Assay: Drug toxicity assay in human foreskin fibroblast (HFF) cells, resazurin
Format: cell-based
Details: read-out: HFF EC50; human foreskin fibroblasts; highest concentration tested 100 µg/mL; mean ± SEM, n>=3

Question: Which EC50 does the source give for `O=[As]c1ccccc1` (stereo not shown) here?
Answer: 1310 nM
